Experimental data from PubChem BioAssay AID493084 (National Center for Advancing Translational Sciences (NCATS), 2011).
Values joined by “and” are separate entries in the source; they are usually repeats but may differ in a detail not shown here. Identical values can stand only once. The list shows a part of the results, in another mix than the full data. Some results for these compounds are left out of this collection, so the calls shown say nothing about other tests. Active and inactive are the calls of the source. Cut-off read from the data, not from the text of the source: active = activation above about 30%; inactive = the rest.
Note: 0% is about no effect.

By UniProt entry, the sequences of proteins in these tests, tags left out.
UniProt P34981, whole entry: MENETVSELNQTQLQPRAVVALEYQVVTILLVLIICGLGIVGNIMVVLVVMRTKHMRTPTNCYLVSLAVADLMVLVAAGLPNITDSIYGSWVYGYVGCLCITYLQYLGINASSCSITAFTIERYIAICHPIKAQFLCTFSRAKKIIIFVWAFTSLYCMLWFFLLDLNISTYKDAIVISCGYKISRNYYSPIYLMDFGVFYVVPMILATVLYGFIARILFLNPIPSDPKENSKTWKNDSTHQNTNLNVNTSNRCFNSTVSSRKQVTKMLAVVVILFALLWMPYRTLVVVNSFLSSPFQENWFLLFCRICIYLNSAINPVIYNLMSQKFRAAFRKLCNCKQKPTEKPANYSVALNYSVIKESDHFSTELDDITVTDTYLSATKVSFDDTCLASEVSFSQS

Each molecule was assayed against Thyrotropin-releasing hormone receptor (Homo sapiens) (UniProt P34981) (assay: qHTS for Small Molecule Agonists and Allosteric Enhancers of Human TRH Receptor: Primary Screen for Agonists.). Conditions: TRHR cells, calcium flux fluo-8, FDSS agonist mode; at 2 µM; active compounds read high.
Excerpt: NIH Chemical Genomics Center [NCGC] NIH Molecular Libraries Probe Centers Network [MLPCN] MLPCN Grant: MH089816-01 Assay Submitter (PI): Marvin Gershengorn This project aims to identify small drug-like molecules that activate (agonists) the thyrotropin releasing hormone (TRH) receptor (TRHR) or enhance its TRH-stimulated activity (allosteric enhancers). TRHR, a drug-accessible cell surface receptor expressed in specific brain regions, and its ligand TRH have been implicated in several central nervous system disorders, including depression and anxiety. Small molecule TRHR agonists or allosteric enhancers that are metabolically stable and able to cross the blood-brain barrier might serve as probes to elucidate the roles of brain TRH receptors in animal models, and might be valuable as lead compounds for the development of drugs to treat patients with central nervous system disorders. Upon TRHR-Gq activation in TRHR cells, intracellular calcium is released from stores in the endoplasmic reticulum. […] This primary screen measures compound-induced activation of calcium release.
For the HTS assay freshly prepared cells are plated at a density of 2000/well in 3 ul of complete DMEM medium containing 10% serum in 1536-well plates and cultured over night at 37 C in a humidified incubator with 5% CO2. The next day, 2 ul of a no wash calcium dye (ABD Bioquest) was added to the cells and plates were incubated at room temperature for 1 hour. For the assay, assay plates were loaded into the FDSS kinetic plate reader. A 10 cycle (1 second/cycle) baseline measurement is taken and then the FDSS online 1536 pintool delivers 23 nl of compound library (as well as TRH controls) to the plate. The plate is measured for kinetically at 1 cycle/sec for 180 seconds and is considered to be the agonist portion of the assay (eg, compounds which activate a positive calcium response during this portion are flagged as potential agonists). Following the 180 second read, 1 ul of either an EC20 (positive modulation assay) is delivered by an onboard pipette head. Measurements are taken kinetically for an additional 180 seconds. TRHR FDSS Screening Protocol 1. Reagent, 3 uL 2000 cells/well 1536 TC treated Black plate in media containing 10% FCS 2. Time, 18 hours, 33.5C 5% CO2 (cells grown at 37C) 3. Reagent, 2 uL ABD fluo-8 Ca dye 4. Time, 30 min-1.5hrs hours, Room temp (6 plates/batch) 5. Detector, EX 480/EM 530C, FDSS 10 cycles baseline (1sec/cycle) 6. Compound, 23 nL of stock solution from library 7. Detector, EX 480/EM 530C, FDSS […] (1sec/cycle) Agonist mode 8. Compound, 1 ul EC20 of TRH made up in HEPES HBSS, 10 nM final 9. Detector, EX 480/EM 530C, FDSS 100 cycles (1sec/cycle) Potentiator mode
With `O=C(NCC1(N2CCCCC2)CCCCC1)c1cc([N+](=O)[O-])ccc1Cl` the activation was inactive: 0.846%. In the case of `CN1[C@@H]2CC[C@H]1CC(OC(=O)C(O)(c1ccccc1)c1ccccc1)C2` (some centres undefined), the activation is reported as inactive: -0.217%. `CC(C)N1C(=O)CC2(CCN(CCOC(=O)C(O)(c3ccccc3)c3ccccc3)CC2)C1=O` was tested, and the activation was inactive: -0.0782%. In the case of `COc1cc(SC)ccc1C(=O)NCC1(N(C)C)CCCCC1`, the activation is reported as inactive: 0.0998%. In the case of `CCN(CC)CC(C)C(C)OC(=O)C(O)(c1ccccc1)c1ccccc1` (centres undefined), the activation is reported as inactive: 0.895%. With `CN(C)C1(CNC(=O)c2cccc(Cl)c2)CCCCC1` the activation was inactive: 0.901%. `CN(C)C1(CNC(=O)c2ccccc2F)CCCCC1` was tested, and the activation was inactive: 0.447%. In the case of `Cc1ccc(C(=O)NCC2(N3CCCCC3)CCCCC2)cc1`, the activation is reported as inactive: -0.172%. `CN(C)C1CCCC1OC(=O)C(O)(c1ccccc1)c1ccccc1` (centres undefined) was tested, and the activation was inactive: 0.188%. `CN(C)c1ccc(C(=O)NCC2(N(C)C)CCCCC2)cc1` was tested, and the activation was inactive: 0.487%. For `CN(C)C1(CNC(=O)c2ccccc2[N+](=O)[O-])CCCCC1`, the activation was inactive: 0.413%. For `Cc1ccccc1C(=O)NCC1(N2CCCCC2)CCCCC1`, the activation was inactive: -0.555%. For `CCCCOc1ccccc1C(=O)NCC1(N(C)C)CCCCC1`, the activation was inactive: 0.739%. With `O=C(NCC1(N2CCCCC2)CCCCC1)c1cc(F)c(F)cc1Cl` the activation was inactive: -0.123%. `C=CCN1CCN(CCOC(=O)C(O)(c2ccccc2)c2ccccc2)CC1` was tested, and the activation was inactive: 0.337%. `O=C(NCC1(N2CCCCC2)CCCCC1)c1cccc(Br)c1` was tested, and the activation was inactive: 0.683%. `Cc1cc(C(=O)NCC2(N3CCCCC3)CCCCC2)ccc1[N+](=O)[O-]` was tested, and the activation was inactive: 1.04%. With `CCN1CCCC(OC(=O)C2(O)c3ccccc3C=Cc3ccccc32)C1` (centres undefined) the activation was inactive: 0.951%. `CCOc1cccc(C(=O)NCC2(N(C)C)CCCCC2)c1` was tested, and the activation was inactive: 0.311%. In the case of `COc1ccc(C(=O)NCC2(N(C)C)CCCCC2)cc1`, the activation is reported as inactive: -0.854%. `CN(C)C1(CNC(=O)c2ccc(Br)cc2)CCCCC1` was tested, and the activation was inactive: 0.359%. For `COc1cc(C(=O)NCC2(N(C)C)CCCCC2)c([N+](=O)[O-])cc1OC`, the activation was inactive: -0.603%. With `COc1ccc(C(=O)NCC2(N(C)C)CCCCC2)cc1Cl` the activation was inactive: 1.55%. `COc1ccc(Cl)cc1C(=O)NCC1(N(C)C)CCCCC1` was tested, and the activation was inactive: 0.535%. With `COc1cccc(C(=O)NCC2(N3CCCCC3)CCCCC2)c1` the activation was inactive: 0.328%. With `O=C(NCC1(N2CCCCC2)CCCCC1)c1cccc(Cl)c1` the activation was inactive: 2.15%. With `O=C(OC1CN2CCC1CC2)C(CO)(c1ccccc1)c1ccccc1` (centres undefined) the activation was inactive: 2.07%. `COc1cccc(C(=O)NCC2(N3CCOCC3)CCCCC2)c1` was tested, and the activation was inactive: 0.311%. `CC(C)COc1ccc(C(=O)NCC2(N(C)C)CCCCC2)cc1` was tested, and the activation was inactive: 1.2%. `COc1ccc(Br)c(C(=O)NCC2(N3CCCCC3)CCCCC2)c1` was tested, and the activation was inactive: 0.416%. `Cc1cccc(C(=O)NCC2(N(C)C)CCCCC2)c1` was tested, and the activation was inactive: 1.17%. In the case of `COc1cc(C(=O)NCC2(N(C)C)CCCCC2)cc(OC)c1OC`, the activation is reported as inactive: 0.362%. `CN(C)c1cccc(C(=O)NCC2(N(C)C)CCCCC2)c1` was tested, and the activation was inactive: -0.532%. With `CC(C)Oc1ccc(C(=O)NCC2(N(C)C)CCCCC2)cc1` the activation was inactive: 1.34% and inactive: -2.7%.
